{
  "source": "PubChem BioAssay AID775",
  "about": "(SRMLSC, 2007)",
  "note": "This is a selection; strong and weak results do not stand in their true shares. Active and inactive are the calls of the source.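 How the source made its calls: active means inhibition above a set limit, placed 3 SD over the median of all compounds (cut at about 26% in these data); inactive means the rest.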",
  "data": [
    {"assay": "compounds extending yeast replicative lifespan, primary screen, S. cerevisiae, OD615 (AID 775);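 further: 0% = nicotinamide-treated wells and 100% = cells grown without nicotinamide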", "details": "S. cerevisiae growth with nicotinamide, at 10 µM, stronger effect = higher value, deaD strain in restrictive glucose medium", "in_short": "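Buffer or medium: CSMM-D glucose medium, restrictive; test system: modified budding yeast, DeaD strain; compound: single dose 10 µM compound, 0.25% DMSO; schedule: culture preincubation 4 h, compound exposure 48 h, both 30 °C; detection: optical density (absorbance) at 615 nm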", "values": [
      {"molecule": "CCOc1ncccc1C(=O)NCC1(N2CCOCC2)CCCCC1", "inhibition of the nicotinamide effect": "inactive: -12%"},
      {"molecule": "CCC(CO)(C(=O)OC1CN2CCC1CC2)c1ccccc1", "note": "(configuration not stated)", "inhibition of the nicotinamide effect": "inactive: 5.91%"},
      {"molecule": "CCN1CCC(Nc2cccc(F)c2)CC1", "inhibition of the nicotinamide effect": "inactive: 4.99%"},
      {"molecule": "c1ccc(CN2CCC(Nc3ccccc3)CC2)cc1", "inhibition of the nicotinamide effect": "inactive: -7.88%"},
      {"molecule": "O=C(OC1CN2CCC1CC2)C1c2ccccc2C=Cc2ccccc21", "note": "(configuration not stated)", "inhibition of the nicotinamide effect": "inactive: 5.62%"},
      {"molecule": "N/C(=N\\O)c1c(N)no[n+]1[O-]", "inhibition of the nicotinamide effect": "inactive: -8.47%"},
      {"molecule": "N#CC1(Nc2ccccc2)CCN(CCc2ccccc2)CC1", "inhibition of the nicotinamide effect": "inactive: 0.92%"},
      {"molecule": "CN1CCN(CCOC(=O)C(O)(c2ccccc2)c2ccccc2)CC1", "inhibition of the nicotinamide effect": "inactive: 2.23%"},
      {"molecule": "O=C(NCC1(N2CCOCC2)CCCCC1)c1cc(=O)[nH]c2ccccc12", "inhibition of the nicotinamide effect": "inactive: -3.66%"},
      {"molecule": "COc1ccc(NC2CCN(CCc3ccccc3)CC2)c(OC)c1", "inhibition of the nicotinamide effect": "inactive: -0.84%"},
      {"molecule": "O=C(OC1CN2CCC1CC2)C1c2ccccc2Oc2ccccc21", "note": "(configuration not stated)", "inhibition of the nicotinamide effect": "inactive: -24.2%"},
      {"molecule": "O=C(NCC1(N2CCOCC2)CCCCC1)c1cc2ccccc2o1", "inhibition of the nicotinamide effect": "inactive: -6.6%"}
    ]}
  ]
}
